# OPERA 2.9 data: water solubility values

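The OPERA project collected these measurements from public sources as training and test data for property models. The files give a single number for a compound and property, which may rest on several reports. Conditions of the individual experiments are not part of the data. Where a salt, mixture or single isomer is drawn, the source does not say that exactly this form was tested. Some entries may be limits or estimates that an upstream database listed as plain numbers.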

Solubility in water is on a log10 molar scale (set defined at 25 °C).
"n/a" marks a cell with nothing listed here.

SMILES	name	water solubility (log10 mol/L)
CC1(C)COCN1	4,4-Dimethyl oxazolidine	0.694
NC(=O)NN=CC=Cc1ccc([N+](=O)[O-])o1	3-(5-Nitrofuran-2-yl)prop-2-enal semicarbazone	-3.144
C=CCNc1nc(NCC=C)nc(N2CCN(C(c3ccc(F)cc3)c3ccc(F)cc3)CC2)n1	Almitrine	-4.521
O=Cc1cccc2c1OC(F)(F)O2	2,2-Difluoro-2H-1,3-benzodioxole-4-carbaldehyde	-2.156
O=C(O)CCCCCCC/C=C/CCCCCCCC(=O)O	(9E)-9-Octadecenedioic acid	-6.017
O=C(Nc1ccc2[nH]c(=O)[nH]c2c1)c1cc2ccccc2c(N=Nc2cc(Cl)ccc2Cl)c1O	n/a	-7.462
C=CC(=O)OCc1c(Br)c(Br)c(Br)c(Br)c1Br	(Pentabromophenyl)methyl acrylate	-7.806
Nc1cc([N+](=O)[O-])cc(C(=O)O)c1O	3-Amino-5-nitrosalicylic acid	-2.491
CCC[C@H]1CC[C@H](c2ccc(-c3ccc(-c4cc(F)c(OC(F)(F)F)c(F)c4)c(F)c3)cc2)CC1	n/a	-7.391
CC(=O)[O-].COc1ccc(N(C)/N=C/C2=[N+](C)c3ccccc3C2(C)C)cc1	n/a	-2.988
CCC(=O)c1ccc2c(c1)N(CC(C)N(C)C)c1ccccc1S2 (stereo unspecified)	Propiomazine	-4.685
CC(C)CC1CCC(CCC=O)CC1 (stereo unspecified)	4-(2-Methylpropyl)cyclohexanepropanal	-6.135
CCOC(=O)C(C)(C)c1ccccc1	ethyl 2-methyl-2-phenylpropanoate	-3.046
CCCCCCC#CC(=O)OC	Methyl 2-nonynoate	-3.361
CCCCOC(=O)Nc1ccccc1	Phenylcarbamic acid butyl ester	-3.429
Clc1ccc(Oc2ccc(Cl)c(Cl)c2Cl)c(Cl)c1Cl	2,2',3,3',4,4'-Hexachlorodiphenylether	-8.14
CCCCCCCCCCCCCCCC[N+](C)(C)CC(=O)OCC.[Cl-]	n/a	-3.603
CCn1nc(C(=O)O)c(=O)c2cc3c(cc21)OCO3	Cinoxacin	-2.44
C=CC(F)(F)C(F)(F)C(F)(F)C(F)(F)C(F)(F)C(F)(F)C=C	1,6-Divinylperfluorohexane	-5.342
O=C(O)CNCCNCC(=O)O.[Br-].[Br-].[Pt+2]	Dibromo(ethylenediaminediacetic acid)platinum	-2.552
OC[C@H](O)[C@@H]1OC(c2ccc(Cl)cc2)O[C@@H]2COC(c3ccc(Cl)cc3)O[C@H]12 (some centres undefined)	n/a	-6.108
CCCCCCCCCCCCCCCC(=O)OC[C@@H](NC(=O)C(Cl)Cl)[C@H](O)c1ccc([N+](=O)[O-])cc1	Chloramphenicol palmitate	-2.728
O=C(O)/C(Br)=C\Br	(2E)-2,3-Dibromoacrylic acid	-0.669
CC1(C)[C@@H]2CC[C@@]1(C)[C@H](O)[C@H]2N	(1R)-3-endo-Amino-2-exo-bornanol	-1.229
CC(C)(C)C(=O)C=Cc1ccc2c(c1)OCO2	1-(1,3-Benzodioxol-5-yl)-4,4-dimethyl-1-penten-3-one	-4.588
Cc1cc(C)cc(N)c1	3,5-Dimethylaniline	-1.402
C=CC(C)C(=O)OCC (stereo unspecified)	Ethyl 2-methylbut-3-enoate	-1.576
COC(=O)C1(O)CC(CO)=NN1c1ncccc1Cl (stereo unspecified)	n/a	-1.888
CC1=CCCC(C)(C)C1CCC(C)C=O (stereo unspecified)	2-Methyl-4-(2,6,6-trimethylcyclohex-2-en-1-yl)butanal	-5.097
CCOc1nc2c(c(=O)n(C)c(=O)n2C)n1C	8-Ethoxycaffeine	-1.9
CCCCCCCCCCCCCCCCCCCCCCOC(=O)CCCCCCCCCCCCCCCCCCCCC	Behenyl behenate	-7.113
CCCCC(CC)COP(=O)(O)O (stereo unspecified)	2-Ethylhexyl dihydrogen phosphate	-1.982
C=C(CC(=O)OCCCC)C(=O)OCCCC	Dibutyl itaconate	-3.51
O=C(O)C=Cc1cccc(O)c1	3-(3-Hydroxyphenyl)prop-2-enoic acid	-2.098
Cc1nc2[nH]cnc(=O)c2nc1C	6,7-Dimethyl-1H-pteridin-4-one	-2.267
O=C(OCC1CCC2OC2C1)C1CCC2OC2C1 (stereo unspecified)	ECC	-1.26
CC1C(C)(C)C2CCc3cncnc3C2C1(C)C (stereo unspecified)	n/a	-4.396
Cc1c(NC(N)=O)c(=O)n(-c2ccccc2)n1C	n/a	-1.522
Nc1nc(=O)c2ncn(CCC(CO)CO)c2[nH]1	Penciclovir	-2.173

A selection of 4 entries from above:

SMILES	name	water solubility (log10 mol/L)
CCCCCCCCCCCCCCCC(=O)OC[C@@H](NC(=O)C(Cl)Cl)[C@H](O)c1ccc([N+](=O)[O-])cc1	Chloramphenicol palmitate	-2.728
O=C(O)CNCCNCC(=O)O.[Br-].[Br-].[Pt+2]	Dibromo(ethylenediaminediacetic acid)platinum	-2.552
Cc1c(NC(N)=O)c(=O)n(-c2ccccc2)n1C	n/a	-1.522
Cc1nc2[nH]cnc(=O)c2nc1C	6,7-Dimethyl-1H-pteridin-4-one	-2.267

Values as listed in the OPERA 2.9 repository of K. Mansouri.